Bridge positions count the residues as written; N and C are the ends. Peptide text beside a SMILES is read from it.

The target in the first assay is Herceptin (human IgG1) (human). Put plainly: SPR.
Conditions: not given
In turn, 15-IgBP (peptide) had a Kd of 267 nM.
For the compound 15-Lys8Ala(t-Bu) (peptide), the Kd came to 15.6 nM.
The compound 15-Lys8Arg (peptide) displayed a Kd of 29.1 nM.
With 15-Lys8Cha (peptide), the Kd stood at 17 nM.
As for 15-Lys8Dab (peptide), the Kd is 68.9 nM.
15-Lys8Dab(Ac) (peptide): the Kd came to 116 nM.
Compound 15-Lys8Leu (peptide) yielded a Kd of 8.19 nM. Against the preceding compound, the Kd is about 14-fold lower.
The compound 15-Lys8Nle (peptide) displayed a Kd of 36.7 nM.
Compound 15-Lys8Nva (peptide) registered a Kd of 44.6 nM.
Compound 15-Lys8Orn (peptide) had a Kd of 487 nM.
The same measure, in the same setting: to 15-Lys8Orn(Ac) (peptide) belongs 138 nM.
Consider 15-Lys8Tle (peptide), for which the Kd is 326 nM.
As to 15-Lys8Val (peptide), the Kd was 77.8 nM.

The next assay has as its target Herceptin (human IgG1) (human). Put plainly: ITC.
Conditions: not given
Regarding 15-IgBP (peptide), the Kd worked out at 210 nM.
In the case of 15-Lys8Leu (peptide), the Kd is 12 nM.

A further assay deals with rat IgG2a. Put plainly: SPR negative control with other species antibody. It is filed as binding.
Conditions: not given
Take `CC(=O)N[C@@H](CC(=O)O)C(=O)N[C@H]1CSSC[C@@H](C(=O)N[C@H](C(=O)N[C@@H](Cc2ccccc2)C(=O)N[C@@H](Cc2c[nH]cn2)C(N)=O)[C@@H](C)O)NC(=O)[C@H](Cc2c[nH]c3ccccc23)NC(=O)[C@H](C(C)C)NC(=O)[C@H](CC(C)C)NC(=O)[C@H](CCC(=O)O)NC(=O)CNC(=O)[C@H](CCCCN)NC(=O)[C@H](Cc2c[nH]cn2)NC(=O)[C@H](Cc2ccc(O)cc2)NC(=O)[C@H](C)NC1=O` [15-IgBP] (Ac-DCAYHKGELVWCTFH-NH2; disulfide 2-12): the “affinity (kon and koff also) against rat IgG2a” value is “did not show detectable affinity”.

A further assay concerns the target Herceptin (human IgG1) (Homo sapiens, UniProt P01857). Put plainly: SPR assay of binding kinetics to immobilized Herceptin. To be noted: calculated from SPR koff on Herceptin.
For the compound `CC(=O)N[C@@H](CC(=O)O)C(=O)N[C@H]1CSSC[C@@H](C(=O)N[C@H](C(=O)N[C@@H](Cc2ccccc2)C(=O)N[C@@H](Cc2c[nH]cn2)C(N)=O)[C@@H](C)O)NC(=O)[C@H](Cc2c[nH]c3ccccc23)NC(=O)[C@H](C(C)C)NC(=O)[C@H](CC(C)C)NC(=O)[C@H](CCC(=O)O)NC(=O)CNC(=O)[C@H](CCCCN)NC(=O)[C@H](Cc2c[nH]cn2)NC(=O)[C@H](Cc2ccc(O)cc2)NC(=O)[C@H](C)NC1=O` [15-IgBP] (Ac-DCAYHKGELVWCTFH-NH2; disulfide 2-12), the “residence time calculated from the koff value” is recorded as 5 s.

Still in this assay, the particulars now being: pH 7.4.
The compound `CC(=O)NCC(=O)N1CCC[C@H]1C(=O)N[C@@H](CC(=O)O)C(=O)N[C@H]1CSSC[C@@H](C(=O)N[C@H](C(N)=O)[C@@H](C)O)NC(=O)[C@H](Cc2c[nH]c3ccccc23)NC(=O)[C@H](C(C)C)NC(=O)[C@H](CC(C)C)NC(=O)[C@H](CCC(=O)O)NC(=O)CNC(=O)[C@H](CCCCN)NC(=O)[C@H](Cc2c[nH]cn2)NC(=O)[C@H](Cc2ccc(O)cc2)NC(=O)[C@H](C)NC1=O` [1–15] had an off-rate (koff) of 0.929 ± 0.002 s⁻¹ and a kon of 567000 ± 3000 M⁻¹ s⁻¹.
As to `CC(=O)NCC(=O)N1CCC[C@H]1C(=O)N[C@@H](CC(=O)O)C(=O)N[C@H]1CSSC[C@@H](C(=O)N[C@H](C(=O)N[C@@H](Cc2ccccc2)C(N)=O)[C@@H](C)O)NC(=O)[C@H](Cc2c[nH]c3ccccc23)NC(=O)[C@H](C(C)C)NC(=O)[C@H](CC(C)C)NC(=O)[C@H](CCC(=O)O)NC(=O)CNC(=O)[C@H](CCCCN)NC(=O)[C@H](Cc2c[nH]cn2)NC(=O)[C@H](Cc2ccc(O)cc2)NC(=O)[C@H](C)NC1=O` [1–16], the koff worked out at 0.546 ± 0.001 s⁻¹ and the kon stood at 778000 ± 3000 M⁻¹ s⁻¹.
With `CC(=O)N1CCC[C@H]1C(=O)N[C@@H](CC(=O)O)C(=O)N[C@H]1CSSC[C@@H](C(=O)N[C@H](C(=O)N[C@@H](Cc2ccccc2)C(N)=O)[C@@H](C)O)NC(=O)[C@H](Cc2c[nH]c3ccccc23)NC(=O)[C@H](C(C)C)NC(=O)[C@H](CC(C)C)NC(=O)[C@H](CCC(=O)O)NC(=O)CNC(=O)[C@H](CCCCN)NC(=O)[C@H](Cc2c[nH]cn2)NC(=O)[C@H](Cc2ccc(O)cc2)NC(=O)[C@H](C)NC1=O` [2–16], the koff came to 0.473 ± 0.002 s⁻¹ and the kon is 687000 ± 5000 M⁻¹ s⁻¹.
Compound `CC(=O)N1CCC[C@H]1C(=O)N[C@@H](CC(=O)O)C(=O)N[C@H]1CSSC[C@@H](C(=O)N[C@H](C(=O)N[C@@H](Cc2ccccc2)C(=O)N[C@@H](Cc2c[nH]cn2)C(N)=O)[C@@H](C)O)NC(=O)[C@H](Cc2c[nH]c3ccccc23)NC(=O)[C@H](C(C)C)NC(=O)[C@H](CC(C)C)NC(=O)[C@H](CCC(=O)O)NC(=O)CNC(=O)[C@H](CCCCN)NC(=O)[C@H](Cc2c[nH]cn2)NC(=O)[C@H](Cc2ccc(O)cc2)NC(=O)[C@H](C)NC1=O` [2–17] displayed a koff of 0.187 ± 0.002 s⁻¹ and a kon of 732000 ± 1000 M⁻¹ s⁻¹.
For `CC(=O)N[C@H]1CSSC[C@@H](C(=O)N[C@H](C(=O)N[C@@H](Cc2ccccc2)C(=O)N[C@@H](Cc2c[nH]cn2)C(N)=O)[C@@H](C)O)NC(=O)[C@H](Cc2c[nH]c3ccccc23)NC(=O)[C@H](C(C)C)NC(=O)[C@H](CC(C)C)NC(=O)[C@H](CCC(=O)O)NC(=O)CNC(=O)[C@H](CCCCN)NC(=O)[C@H](Cc2c[nH]cn2)NC(=O)[C@H](Cc2ccc(O)cc2)NC(=O)[C@H](C)NC1=O` [4–17], the koff was determined as 1.05 s⁻¹ and the kon turned out to be 716000 ± 3000 M⁻¹ s⁻¹.
In turn, `CC(=O)N[C@@H](CC(=O)O)C(=O)N[C@H]1CSSC[C@@H](C(=O)N[C@H](C(=O)N[C@@H](Cc2ccccc2)C(=O)N[C@@H](Cc2c[nH]cn2)C(N)=O)[C@@H](C)O)NC(=O)[C@H](Cc2c[nH]c3ccccc23)NC(=O)[C@H](C(C)C)NC(=O)[C@H](CC(C)C)NC(=O)[C@H](CCC(=O)O)NC(=O)CNC(=O)[C@H](CCCCN)NC(=O)[C@H](Cc2c[nH]cn2)NC(=O)[C@H](Cc2ccc(O)cc2)NC(=O)[C@H](C)NC1=O` [15-IgBP] (Ac-DCAYHKGELVWCTFH-NH2; disulfide 2-12) returned a koff of 0.198 ± 0.001 s⁻¹ and a kon of 741000 ± 3000 M⁻¹ s⁻¹.
`CC(=O)NCC(=O)N1CCC[C@H]1C(=O)N[C@@H](C)C(=O)N[C@H]1CSSC[C@@H](C(=O)N[C@H](C(=O)N[C@@H](Cc2ccccc2)C(=O)N[C@@H](Cc2c[nH]cn2)C(N)=O)[C@@H](C)O)NC(=O)[C@H](Cc2c[nH]c3ccccc23)NC(=O)[C@H](C(C)C)NC(=O)[C@H](CC(C)C)NC(=O)[C@H](CCC(=O)O)NC(=O)CNC(=O)[C@H](CCCCN)NC(=O)[C@H](Cc2c[nH]cn2)NC(=O)[C@H](Cc2ccc(O)cc2)NC(=O)[C@H](C)NC1=O` [Asp3Ala] registered a koff of 0.495 ± 0.001 s⁻¹ and a kon of 649000 ± 3000 M⁻¹ s⁻¹.
On to `CC(=O)N[C@@H](C)C(=O)N1CCC[C@H]1C(=O)N[C@@H](CC(=O)O)C(=O)N[C@H]1CSSC[C@@H](C(=O)N[C@H](C(=O)N[C@@H](Cc2ccccc2)C(=O)N[C@@H](Cc2c[nH]cn2)C(N)=O)[C@@H](C)O)NC(=O)[C@H](Cc2c[nH]c3ccccc23)NC(=O)[C@H](C(C)C)NC(=O)[C@H](CC(C)C)NC(=O)[C@H](CCC(=O)O)NC(=O)CNC(=O)[C@H](CCCCN)NC(=O)[C@H](Cc2c[nH]cn2)NC(=O)[C@H](Cc2ccc(O)cc2)NC(=O)[C@H](C)NC1=O` [Gly1Ala], for which the koff was 0.191 s⁻¹ and the kon was found to be 768000 ± 2000 M⁻¹ s⁻¹.
`CC(=O)NCC(=O)N1CCC[C@H]1C(=O)N[C@@H](CC(=O)O)C(=O)N[C@H]1CSSC[C@@H](C(=O)N[C@H](C(=O)N[C@@H](Cc2ccccc2)C(=O)N[C@@H](Cc2c[nH]cn2)C(N)=O)[C@@H](C)O)NC(=O)[C@H](Cc2c[nH]c3ccccc23)NC(=O)[C@H](C(C)C)NC(=O)[C@H](CC(C)C)NC(=O)[C@H](CCC(=O)O)NC(=O)[C@H](C)NC(=O)[C@H](CCCCN)NC(=O)[C@H](Cc2c[nH]cn2)NC(=O)[C@H](Cc2ccc(O)cc2)NC(=O)[C@H](C)NC1=O` [Gly9Ala] (Ac-GPDCAYHKAELVWCTFH-NH2; disulfide 4-14) displayed a koff of 0.434 ± 0.001 s⁻¹ and a kon of 252000 ± 1000 M⁻¹ s⁻¹.
In the case of `CC(=O)NCC(=O)N1CCC[C@H]1C(=O)N[C@@H](CC(=O)O)C(=O)N[C@H]1CSSC[C@@H](C(=O)N[C@H](C(=O)N[C@@H](Cc2ccccc2)C(=O)N[C@@H](C)C(N)=O)[C@@H](C)O)NC(=O)[C@H](Cc2c[nH]c3ccccc23)NC(=O)[C@H](C(C)C)NC(=O)[C@H](CC(C)C)NC(=O)[C@H](CCC(=O)O)NC(=O)CNC(=O)[C@H](CCCCN)NC(=O)[C@H](Cc2c[nH]cn2)NC(=O)[C@H](Cc2ccc(O)cc2)NC(=O)[C@H](C)NC1=O` [His17Ala], the koff came out at 0.497 ± 0.001 s⁻¹ and the kon came out at 714000 ± 1000 M⁻¹ s⁻¹.
For the compound `CC(=O)NCC(=O)N1CCC[C@H]1C(=O)N[C@@H](CC(=O)O)C(=O)N[C@H]1CSSC[C@@H](C(=O)N[C@H](C(=O)N[C@@H](Cc2ccccc2)C(=O)N[C@@H](Cc2c[nH]cn2)C(N)=O)[C@@H](C)O)NC(=O)[C@H](Cc2c[nH]c3ccccc23)NC(=O)[C@H](C(C)C)NC(=O)[C@H](CC(C)C)NC(=O)[C@H](CCC(=O)O)NC(=O)CNC(=O)[C@H](C)NC(=O)[C@H](Cc2c[nH]cn2)NC(=O)[C@H](Cc2ccc(O)cc2)NC(=O)[C@H](C)NC1=O` [Lys8Ala], the koff was 0.106 s⁻¹ and the kon turned out to be 622000 ± 2000 M⁻¹ s⁻¹.
As for `CC(=O)NCC(=O)N1CCC[C@H]1C(=O)N[C@@H](CC(=O)O)C(=O)N[C@H]1CSSC[C@@H](C(=O)N[C@H](C(=O)N[C@@H](C)C(=O)N[C@@H](Cc2c[nH]cn2)C(N)=O)[C@@H](C)O)NC(=O)[C@H](Cc2c[nH]c3ccccc23)NC(=O)[C@H](C(C)C)NC(=O)[C@H](CC(C)C)NC(=O)[C@H](CCC(=O)O)NC(=O)CNC(=O)[C@H](CCCCN)NC(=O)[C@H](Cc2c[nH]cn2)NC(=O)[C@H](Cc2ccc(O)cc2)NC(=O)[C@H](C)NC1=O` [Phe16Ala], the dissociation rate constant (koff) was 0.552 s⁻¹ and the on-rate (kon) was 582000 ± 2000 M⁻¹ s⁻¹.
Compound `CC(=O)NCC(=O)N[C@@H](C)C(=O)N[C@@H](CC(=O)O)C(=O)N[C@H]1CSSC[C@@H](C(=O)N[C@H](C(=O)N[C@@H](Cc2ccccc2)C(=O)N[C@@H](Cc2c[nH]cn2)C(N)=O)[C@@H](C)O)NC(=O)[C@H](Cc2c[nH]c3ccccc23)NC(=O)[C@H](C(C)C)NC(=O)[C@H](CC(C)C)NC(=O)[C@H](CCC(=O)O)NC(=O)CNC(=O)[C@H](CCCCN)NC(=O)[C@H](Cc2c[nH]cn2)NC(=O)[C@H](Cc2ccc(O)cc2)NC(=O)[C@H](C)NC1=O` [Pro2Ala] gave a koff of 0.2 ± 0.002 s⁻¹ and a kon of 635000 ± 2000 M⁻¹ s⁻¹.
`CC(=O)NCC(=O)N1CCC[C@H]1C(=O)N[C@@H](CC(=O)O)C(=O)N[C@H]1CSSC[C@@H](C(=O)N[C@@H](C)C(=O)N[C@@H](Cc2ccccc2)C(=O)N[C@@H](Cc2c[nH]cn2)C(N)=O)NC(=O)[C@H](Cc2c[nH]c3ccccc23)NC(=O)[C@H](C(C)C)NC(=O)[C@H](CC(C)C)NC(=O)[C@H](CCC(=O)O)NC(=O)CNC(=O)[C@H](CCCCN)NC(=O)[C@H](Cc2c[nH]cn2)NC(=O)[C@H](Cc2ccc(O)cc2)NC(=O)[C@H](C)NC1=O` [Thr15Ala] showed a koff of 0.53 ± 0.001 s⁻¹ and a kon of 851000 ± 4000 M⁻¹ s⁻¹.

The same assay, now with this note: ratio of SPR kon values.
In the case of `CC(=O)NCC(=O)N1CCC[C@H]1C(=O)N[C@@H](CC(=O)O)C(=O)N[C@H]1CSSC[C@@H](C(=O)N[C@H](C(=O)N[C@@H](Cc2ccccc2)C(=O)N[C@@H](Cc2c[nH]cn2)C(N)=O)[C@@H](C)O)NC(=O)[C@H](Cc2c[nH]c3ccccc23)NC(=O)[C@H](C(C)C)NC(=O)[C@H](CC(C)C)NC(=O)[C@H](CCC(=O)O)NC(=O)[C@H](C)NC(=O)[C@H](CCCCN)NC(=O)[C@H](Cc2c[nH]cn2)NC(=O)[C@H](Cc2ccc(O)cc2)NC(=O)[C@H](C)NC1=O` [Gly9Ala] (Ac-GPDCAYHKAELVWCTFH-NH2; disulfide 4-14), the “times lower kon value than the original peptide (1)” value stood at 3.6 times.

The values above are taken from publication PMC6740044 (ACS Omega, 2019).
